Experimental data: US8163701B2, “Prodrugs of active agents” (Signature Therapeutics, Inc., priority 2005, dated 2012)

Molecular target: T1, Type 1 bovine trypsin (Bos taurus, UniProt P00760)
T1 sequence (P00760 24-246): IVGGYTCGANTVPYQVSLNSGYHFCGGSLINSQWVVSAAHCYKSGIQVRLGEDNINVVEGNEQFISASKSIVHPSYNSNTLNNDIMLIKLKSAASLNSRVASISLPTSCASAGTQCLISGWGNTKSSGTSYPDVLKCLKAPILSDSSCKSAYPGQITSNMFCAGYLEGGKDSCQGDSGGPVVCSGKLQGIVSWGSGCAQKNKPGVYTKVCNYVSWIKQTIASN
Assay: Trypsin hydrolysis of opioid prodrug Z
Details: 30 minute incubation at room temperature with increasing amounts of trypsin, reverse phase HPLC; 12 mM CaCl2, 5 mM Tris-HCl pH 8.0

COc1ccc2c3c1OC1C(=O)CC[C@H]4[C@@H](C2)[N@@+](C)(Cc2ccc(NC(=O)[C@@H](N)CCCCN)cc2)CC[C@]314 (stereo partly shown) [opioid prodrug Z]
hydrolysis of prodrug by trypsin (disappearance of prodrug / appearance of hydrocodone): hydrolyzed to hydrocodone
